{
  "sequences": {"note": "Protein sequences, listed by entry. Tags and fused reporters are not part of them.", "UniProt P35372, whole entry": "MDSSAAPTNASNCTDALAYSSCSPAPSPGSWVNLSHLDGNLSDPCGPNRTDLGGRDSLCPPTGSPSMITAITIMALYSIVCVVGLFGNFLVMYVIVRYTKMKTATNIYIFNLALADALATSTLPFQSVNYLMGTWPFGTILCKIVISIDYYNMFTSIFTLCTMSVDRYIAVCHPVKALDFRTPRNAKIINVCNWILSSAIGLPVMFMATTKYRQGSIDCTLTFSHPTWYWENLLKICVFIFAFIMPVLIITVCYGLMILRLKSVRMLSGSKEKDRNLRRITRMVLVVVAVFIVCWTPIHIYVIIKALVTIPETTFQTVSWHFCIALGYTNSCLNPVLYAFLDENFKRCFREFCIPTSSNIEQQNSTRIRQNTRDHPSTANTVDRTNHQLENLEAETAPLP"},
  "source": "BindingDB's records for PubMed 7932177",
  "about": "(Memorial Sloan-Kettering Cancer Center, 1994)",
  "target": "Mu-type opioid receptor (Homo sapiens, UniProt P35372)",
  "data": [
    {"smiles": "CCC12CCN(CC3(O)CC3)C(Cc3ccc(O)cc31)C2(C)C", "note": "(stereo unspecified)", "values": [
      {"measurement": "Ki", "result": 810, "unit": "pM"}
    ]}
  ]
}
